The record followed here is patent US8815934B2 (dated 2014).

By UniProt entry, the sequences of proteins in these tests, tags left out.
UniProt P03372, whole entry: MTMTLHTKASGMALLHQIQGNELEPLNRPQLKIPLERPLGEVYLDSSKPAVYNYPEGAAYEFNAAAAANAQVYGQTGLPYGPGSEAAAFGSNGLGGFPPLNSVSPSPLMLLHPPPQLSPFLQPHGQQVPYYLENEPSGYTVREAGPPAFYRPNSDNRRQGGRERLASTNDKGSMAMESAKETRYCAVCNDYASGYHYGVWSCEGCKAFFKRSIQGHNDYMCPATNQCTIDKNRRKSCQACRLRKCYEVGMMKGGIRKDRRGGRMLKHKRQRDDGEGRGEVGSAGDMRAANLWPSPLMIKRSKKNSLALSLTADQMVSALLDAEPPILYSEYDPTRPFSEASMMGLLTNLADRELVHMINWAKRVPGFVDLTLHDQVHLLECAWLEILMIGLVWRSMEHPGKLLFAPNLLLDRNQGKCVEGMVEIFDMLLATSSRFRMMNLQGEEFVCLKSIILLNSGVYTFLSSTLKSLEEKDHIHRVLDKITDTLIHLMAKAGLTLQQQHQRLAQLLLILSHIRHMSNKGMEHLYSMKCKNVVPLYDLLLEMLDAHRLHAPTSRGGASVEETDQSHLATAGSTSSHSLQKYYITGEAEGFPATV

The test addresses estrogen receptor (Homo sapiens (Human), UniProt P03372). In words: In vitro estrogen receptor binding assay. Conditions: read-out: Receptor Binding IC50's; competition with [3H]17β-estradiol; cytosol of CHO cells overexpressing the estrogen receptor.

As a reminder, the IC50 is the concentration that inhibits the measured activity by half. With `Cc1c(-c2ccc(O)cc2)n(Cc2ccc(OCCN(C)C)cc2)c2ccc(O)cc12` [No. 100, 2-(4-Hydroxy-phenyl)-3-methyl-1-[4-(2-dimethyl-1-yl-ethoxy)-benzyl]-1H-indol-5-ol], the IC50 worked out at 60 nM.
